Test results taken from patent US9649394B2, “Compositions and methods for in vivo imaging” (The General Hospital Corporation, priority 2010, dated 2017).

By UniProt entry, the sequences of proteins in these tests, tags left out.
UniProt P09874, whole entry: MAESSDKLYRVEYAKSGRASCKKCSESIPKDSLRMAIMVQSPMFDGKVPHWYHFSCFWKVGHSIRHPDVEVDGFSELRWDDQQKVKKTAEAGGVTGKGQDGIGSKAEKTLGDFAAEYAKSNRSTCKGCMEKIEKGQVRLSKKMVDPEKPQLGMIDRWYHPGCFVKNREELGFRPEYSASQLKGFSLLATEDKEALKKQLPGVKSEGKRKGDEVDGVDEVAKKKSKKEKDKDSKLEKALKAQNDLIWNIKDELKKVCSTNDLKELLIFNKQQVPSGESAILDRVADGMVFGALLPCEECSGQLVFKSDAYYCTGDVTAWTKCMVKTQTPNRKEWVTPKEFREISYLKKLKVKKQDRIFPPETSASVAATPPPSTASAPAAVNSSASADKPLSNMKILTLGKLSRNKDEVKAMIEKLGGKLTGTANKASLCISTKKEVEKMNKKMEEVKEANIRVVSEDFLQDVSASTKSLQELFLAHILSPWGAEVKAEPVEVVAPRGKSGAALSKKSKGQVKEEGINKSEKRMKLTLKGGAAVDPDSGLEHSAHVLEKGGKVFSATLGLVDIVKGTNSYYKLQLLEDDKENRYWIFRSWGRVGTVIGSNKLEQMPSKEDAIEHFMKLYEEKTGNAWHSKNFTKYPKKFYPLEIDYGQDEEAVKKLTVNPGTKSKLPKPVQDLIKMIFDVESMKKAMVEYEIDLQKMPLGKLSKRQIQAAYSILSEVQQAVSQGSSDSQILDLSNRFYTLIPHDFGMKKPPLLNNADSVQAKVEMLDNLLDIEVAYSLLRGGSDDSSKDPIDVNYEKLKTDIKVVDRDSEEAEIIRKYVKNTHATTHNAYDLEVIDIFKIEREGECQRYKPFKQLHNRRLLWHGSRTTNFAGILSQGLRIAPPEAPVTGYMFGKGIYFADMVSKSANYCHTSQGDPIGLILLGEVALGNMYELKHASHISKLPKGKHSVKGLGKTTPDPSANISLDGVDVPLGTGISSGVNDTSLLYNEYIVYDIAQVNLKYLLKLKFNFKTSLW

How the values were obtained:
PARP1 = PARP1 (Homo sapiens, UniProt P09874); experiment: Colorimetric PARP1 activity assay (Trevigen), IC50 determination; assay type: biochemical; conditions: Example 2 and 3 text; isolated enzyme
MDA-MB-436 tumors = experiment: PET-CT imaging of MDA-MB-436 tumor-bearing mice, with and without AZD2281; conditions: tumor-bearing mouse, 30 mCi
[1] = test system: MDA-MB-231 and MDA-MB-436 cells; experiment: Competitive cellular uptake of 18F-AZD2281 (gamma-counting)
A2780 tumors = experiment: Non-invasive monitoring of treatment response in tumor-bearing Nu/Nu mice (SUV); conditions: 0.5-1.0 mg AZD2281 ip or iv before imaging
[2] = PET-CT organ distribution in non-tumor bearing Nu/Nu mice

Row | SMILES | IC50 (PARP1) [nM] | uptake in the tumors (MDA-MB-436 tumors) | cell permeability ([1]; 5 μCi, 20 minutes incubation) | cellular uptake upon addition of excess nonradioactive AZD2281 ([1]; AZD2281 10 μM to 0.01 nM) | cellular uptake, comparison of cell lines ([1]; MDA-MB-231 (low PARP1) versus MDA-MB-436 (high PARP1)) | tumor signal after injection of Olaparib (A2780 tumors) | t1/2 in bloodstream ([2]; PET) [min] | initial localization of the probe ([2]; PET at 10, 30, 50 minutes, hepatobiliary excretion)
1 | O=C(CCCC(=O)N1CCN(C(=O)c2cc(Cc3n[nH]c(=O)c4ccccc34)ccc2F)CC1)NCc1ccc(-c2nncc3c2CCC(OCC[18F])CCC3)cc1 (stereo not drawn) | 17.9 | clearly visible | cell-permeable | inhibitable | lower for MDA-MB-231 cells than for MDA-MB-436 cells | drop | 6 | mainly in liver, gall bladder, and intestines
2 | O=C(CCCC(=O)N1CCN(C(=O)c2cc(Cc3n[nH]c(=O)c4ccccc34)ccc2F)CC1)NCc1ccc(-c2nncnn2)cc1 | 8.4 |  |  |  |  |  |  | 
